The list is not random: actives were taken first. Their share in the collection is about 3.7%.
A549 tox: counter-screen for Nrf2 inhibitors: cytotoxicity in A549 cells | Potency, µM (top dose mostly 46 µM), most hits filed as inhibitors | AID 504648 | A549 ARE-Fluc cells, CellTiter-Fluor viability, 18-24 h | actives 0.16% (n = 390,000)
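Cytotoxicity counterscreen: CellTiter-Fluor fluorescence was measured in A549 ARE_Fluc cells after 18-24 h of compound exposure in a concentration series. The subsequent BugLite luminescent read reports ARE-luciferase activity.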
TCR activator: activates T cell receptor signaling; primary human leukocytes, anti-CD3, IL-2 HTRF, 48 h; Potency, µM (titrated, usually from 9.22 µM), most hits filed as activators; 330,000 tested, under 10 active; AID 504894
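HTRF read-out of IL-2 secretion: europium cryptate donor excited at 320nm, d2 acceptor emission at 665nm. Cells were primary human leukocytes incubated 48 hr with compounds and a-CD3 beads, supplying TCR signal only.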
ClpP mod: qHTS Assay for Activators of ClpP | ATP-dependent Clp protease proteolytic subunit (Bacillus subtilis (strain 168)), P80244 | purified B. subtilis ClpP, FRET peptide cleavage, 20 min | Potency, µM (titrated, usually from 57.5 µM) | actives 1.9% (n = 340,000) | AID 651965, 2013; active = well fitted falling curve with a large enough effect; inconclusive = small, poorly fitted or top-dose-only effect; inactive = no such curve, though single readings can be large or run the other way; note: the source files actives as falling curves though it sought activators and does not explain the sign; nearly all actives have a fitted effect of over 65% in size
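Buffer: 100 mM Tris/HCl pH8, 100 mM KCl, 0.05% low protease BSA, 2.5% glycerol, 0.01% Tween-20. ClpP 10 microg/mL final; 20 min RT; delta FRET normalized to ADEP and DMSO controls.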
Nrf2 block: inhibitors of Nrf2 signaling; Potency, µM (series often up to 46 µM), most hits filed as inhibitors; actives 2.1% (n = 360,000); A549 ARE-Fluc reporter, luciferase luminescence, 18-24 h; note: nearly all actives have a fitted effect of over 60% in size
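A549 ARE_Fluc cells (5000/well, 5% FBS OPTI-MEM) pre-incubated 2 h, then treated with compounds 18-24 h at 37C/5% CO2 in concentration-response. CellTiter-Fluor viability read first; BugLite luciferase luminescence after 15 min at room temperature gives Nrf2 activity.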
Nrf2 ARE act: Nrf2 pathway activation; AID 624171; Potency, µM (highest dose often 46.1 µM), usual class: activators; AREc32 ARE-luciferase reporter (MCF7-derived line), luminescence, 24 h; actives 0.31% (n = 410,000); note: nearly all actives have a fitted effect of over 65% in size
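ARE-driven firefly luciferase activity in AREc32 cells measured after a 24 hr compound exposure at 37 deg C, using Steady-Glo reagent and a 30 min room-temperature hold.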
miR-21 reporter: miR-21 reporter, rising signal; Potency, µM (top dose mostly 38.3 µM); 340,000 tested, under 10 active; HeLa miR-21 FLuc reporter, luciferase, 48 h; active = well fitted rising curve with a large enough effect; inconclusive = small, poorly fitted or top-dose-only effect; inactive = no such curve, though single readings can be large or run the other way;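 note: miR-21 action dims this reporter so a rising signal means less miR-21 action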
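HeLa cells endogenously expressing miR-21, stably carrying CMV-driven firefly luciferase with a downstream miR-21 binding site, 2000 cells/well. Titrations up to approximately 40 uM, 48 hours; luciferase luminescence read.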
A number is an active result; - = inactive; ? = inconclusive; . = no result given; [ ] = another dose, or the depositor's remark. Unless noted, calls come from the whole dose curve; as a rule, active = well fitted curve in the direction sought with a large enough effect; inconclusive = small, poorly fitted or top-dose-only effect, or another doubt; inactive = no such curve, though single readings can be large; an effect the other way counts as inactive or inconclusive.

SMILES	A549 tox	TCR activator	ClpP mod	Nrf2 block	Nrf2 ARE act	miR-21 reporter
Cc1ccc(NC(=O)CN(Cc2ccccc2)S(=O)(=O)c2ccc3nc(C)sc3c2)c(C)c1	-	.	-	-	-	-
Cc1ccc2nc(SCC(=O)NCc3ccc4c(c3)OCO4)nc(=O)n2c1	-	-	-	-	-	.
COc1ccc(CC(=O)Nc2nnc(-c3cccc([N+](=O)[O-])c3)s2)cc1	-	-	-	-	-	-
O=C(Nc1ncc(Cc2ccccc2Cl)s1)c1ccc(-c2cccc([N+](=O)[O-])c2)o1	-	-	-	16µM	-	-
O=C(Cc1ccccc1)Nc1nnc(-c2cccc([N+](=O)[O-])c2)s1	-	-	32µM	-	-	-
CCOC(=O)Nc1nnc(-c2cccc(OC)c2)s1	-	-	-	?	-	-
CCCC(=O)Nc1nnc(-c2cccc(OCC)c2)s1	-	-	28µM	?	-	-
O=C(NC1CCCCC1)N(c1ccccc1)c1nnc(-c2cccc([N+](=O)[O-])c2)s1	.	.	-	.	3.2µM	.
CCC(=O)NC1=C(C#N)C2(CCCC2)Cc2ccccc21	-	-	32µM	.	-	-
N#Cc1ccc2ccn(CC(=O)NCc3ccccc3)c2c1	-	-	25µM	-	-	-
CC1(O)CC(c2ccc(Cl)cc2)=NN1C(=O)c1ccc([N+](=O)[O-])cc1 (centres undefined)	?	-	.	18µM	-	-
CC(=O)N1N=C(c2ccc(Cl)cc2)CC1c1ccc([N+](=O)[O-])cc1 (centres undefined)	-	-	.	?	-[9.22 µM]	-
CC(=O)C1=C(C)NC(SCC(=O)c2cc(Cl)ccc2Cl)=C(C#N)C1c1ccco1 (centres undefined)	?	-	-	7.3µM	-	-
CC(=O)C1=C(C)NC(SCC(=O)c2ccc(Cl)cc2)=C(C#N)C1CC(C)C (centres undefined)	-	-	25µM	-	-	-
CC(=O)C1=C(C)NC(SCC(=O)c2ccc(F)cc2)=C(C#N)C1CC(C)C (centres undefined)	-	-	-	-	-	-
Cc1nnc2n(-c3ccccc3)c(=O)c3c4c(sc3n12)COC(C(C)C)C4 (centres undefined)	-	-	-	-	-	-
CC(C)C1Cc2c(sc3[nH]c(=S)n(Cc4ccccc4)c(=O)c23)CO1 (centres undefined)	?	-	-	16µM	-	-
COc1ccc([C@]23Cc4ccccc4C(O2)C2=C(CC(C)(C)CC2=O)O3)cc1	.	.	.	.	.	-[7.66 µM]
COc1ccc(NC(=O)CCN2C(=O)c3ccccc3C2=O)c(OC)c1	-	-	-	-	-	-
COc1ccc(OC)c(N(CCN2C(=O)c3ccccc3C2=O)C(=O)CCl)c1	.	.	-	.	13µM	.
COc1cc2oc3ccccc3c2cc1N(CC(=O)N(C)C)S(=O)(=O)c1ccccc1	-	-	-	-	-	-
CCN(CC)C(=O)CN(c1cc2c(cc1OC)oc1ccccc12)S(=O)(=O)c1ccccc1	?	-	-	16µM	-	-
CCn1c(/C=C/c2ccccc2C)nc2ccccc2c1=O	-	-	-	-	-	-
O=c1c2ccccc2nc(/C=C/c2ccc(Cl)cc2)n1CCO	-	.	32µM	-	-	-
CCn1c(/C=C/c2ccccc2F)nc2ccccc2c1=O	-	-	?	-	2.8µM	-
SMILES	A549 tox	TCR activator	ClpP mod	Nrf2 block	Nrf2 ARE act	miR-21 reporter
O=c1c2ccccc2nc(/C=C/c2ccc([N+](=O)[O-])o2)n1CCCO	23µM	-	-	21µM	-	?
COc1cccc(C2c3c(ncn(-c4ccc(C#N)cc4)c3=N)Oc3ccc4ccccc4c32)c1 (centres undefined)	-	.	.	-	.	.
CCN(CC)c1ccc(NC(=O)C2CCCN(S(=O)(=O)c3ccc4c(c3)oc(=O)n4C)C2)c(C)c1 (centres undefined)	-	.	-	-	-	-
CSc1ccc(CN(C)C(=O)CNC(=O)c2sc3ccccc3c2Cl)cc1	?	-	-	10µM	-	-
COc1ccc(CN(C)C(=O)CNC(=O)c2sc3ccccc3c2Cl)c(OC)c1OC	-	-	-	?	-	.
CCC(=O)N1CCc2cc(Br)cc(S(=O)(=O)CCC(=O)Nc3ccc(C)c(C)c3)c21	-	.	-	.	-	-
C[C@@H]1CN([C@@H](C)CO)C(=O)c2cc(Br)cnc2O[C@H]1CN(C)C(=O)c1ccncc1	.	.	-	.	-	.
COc1cccc(C2C(C(=O)Nc3ccccc3)=C(C)Nc3nc(-c4ccccc4)nn32)c1OC (centres undefined)	-	.	-	18µM	-	?
COc1ccc(C2C(C(=O)Nc3ccccc3)=C(C)Nc3nc(-c4ccccc4)nn32)c(OC)c1 (centres undefined)	-	.	-	?	-	-
Cn1c(=N)c(S(=O)(=O)c2ccccc2)cc2c(=O)n3ccccc3nc21	-	-	7.9µM	-	-	-
Cn1c(=N)c(S(=O)(=O)c2ccc(F)cc2)cc2c(=O)n3ccccc3nc21	-	-	-	-	-	-
Cn1c(C(=O)NCCc2ccccc2)cc2c(=O)n3ccccc3nc21	-	.	-	-	-	-
CCCCCNC(=O)c1cc2c(=O)n3ccccc3nc2n1C	-	.	-	18µM	-	-
Cc1ccc2c(c1C)-c1c(ccc(C)c1C)C(=O)C2=O	?	-	-	?	-	.
Cc1ccc2c(c1C)OC(=O)CC2(C)C	-	-	32µM	-	-	-
CCC(C(=O)NCc1ccccc1)n1c(-c2cccs2)nc2ccccc21 (centres undefined)	.	.	-	.	.	.
Cc1cccc2nc(-c3ccccn3)c(Nc3ccccc3)n12	-	.	-	10µM	-	?
Cc1cccc(C)c1Nc1c(-c2ccccc2F)nc2cccc(C)n12	?	.	32µM	?	-	-
Cc1ccn2c(Nc3ccc(F)cc3)c(-c3ccccn3)nc2c1	?	.	-	16µM	-	-
Cc1cccc2nc(-c3ccccn3)c(Nc3ccc(F)cc3)n12	?	.	-	16µM	-	?
Cc1cccc2nc(-c3ccco3)c(Nc3ccccc3)n12	-	-	-	?	-	-
O=C(Nc1cccc2ccccc12)N(CCO)C1CCS(=O)(=O)C1 (centres undefined)	-	-	.	-	-	-
O=C(C[N+]12CCCc3cccc(c31)CCC2)c1ccc2ccccc2c1	.	.	-	.	.	.
Cc1ccc(CCNC(=O)c2ccc(Cn3c(=O)c4cccn4c4cccnc43)cc2)cc1	-	.	-	?	-	-

Screening data from PubChem BioAssay.
